Literature values as cited in US5919797A, “Halogenated naphthyl methoxy piperidines for mapping serotonin transporter sites” (Emory University, priority 1997, dated 1999).

How the values were obtained:
[1] = test system: presynaptic reuptake of serotonin; settings: humans; depression, obsessive-compulsive and eating disorders, alcoholism, drug addiction; cited from earlier work
serotonin transporter = settings: radiolabeled with carbon-11 and fluorine-18; cited from earlier work

SMILES	therapeutic value, in words [1]	image quality / in vivo affinity and selectivity, in words (serotonin transporter)
CN(C)CCCC1(c2ccc(F)cc2)OCc2cc(C#N)ccc21 (stereo not drawn) [citalopram]	considerable therapeutic value	poor quality images
CNCCC(Oc1ccc(C(F)(F)F)cc1)c1ccccc1 (stereo not drawn) [fluoxetine]	considerable therapeutic value	poor quality images
Fc1ccc([C@@H]2CCNC[C@H]2COc2ccc3c(c2)OCO3)cc1 [paroxetine]	considerable therapeutic value	poor quality images
